Patent US10792633B2, “Composition comprising a fluorine-containing surfactant” (HWK-Kronbichler GmbH, priority 2016, dated 2020)

What was measured:
[1] = Solubility in organic solvents; assay type: physicochemical
[2] = Determining the solubility in water; assay type: physicochemical; details: values not exact
Protocol: The suspension was added to the ultrasound bath for 5 minutes and was centrifuged for 20 minutes. The supernatant was then weighed and was rinsed with argon for 5 minutes to remove any possibly dissolved oxygen. […] The experiment was performed at approximately 23° C.

Substance	Solubility in 3M Novec 71 IPA ([1]; 3M™ Novec™ 71 IPA)	Solubility in DMSO ([1]; DMSO)	Solubility in MeOH ([1]; MeOH)	Solubility in water [2]	Solubility ([1]; Et2O)	Solubility ([1]; MeCN)
1-methyl-2-((1H,1H,2H,2H-perfluorooctyl)thio)imidazoliumiodide [Synthesis Example 3]	9.6 mg/mL	740 mg/mL	1300 mg/mL	<1 mg/mL		
3-((3-octyl-1-(1H,1H,2H,2H-perfluorooctyl)imidazolium-2-yl)thio)propane-1-sulfonate [Synthesis Example 7]					0.5 mg/mL	9.0 mg/mL
